Drawing on ChEMBL document CHEMBL1134315 (J Med Chem, 2001), this text covers Ki for one compound.

By UniProt entry, the sequences of proteins in these tests, tags left out.
UniProt P34972, whole entry: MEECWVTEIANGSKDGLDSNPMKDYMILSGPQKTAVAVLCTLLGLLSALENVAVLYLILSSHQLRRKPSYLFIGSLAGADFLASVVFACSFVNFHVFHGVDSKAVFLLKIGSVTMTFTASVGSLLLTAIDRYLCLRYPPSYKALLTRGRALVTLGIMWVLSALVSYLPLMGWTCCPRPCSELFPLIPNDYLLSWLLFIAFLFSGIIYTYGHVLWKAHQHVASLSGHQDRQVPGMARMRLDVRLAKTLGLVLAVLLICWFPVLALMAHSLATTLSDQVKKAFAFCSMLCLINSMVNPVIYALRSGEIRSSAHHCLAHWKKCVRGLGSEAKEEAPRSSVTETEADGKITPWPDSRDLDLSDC

This assay deals with Cannabinoid receptor 2 (Homo sapiens, UniProt P34972). The experiment in a line: Binding affinity to human CB2 cannabinoid receptor using [3H]CP-55940 in HEK293 EBNA transfected cells. It counts as cell-based.

`CCCCC/C=C\C/C=C\C/C=C\C/C=C\CCCC(=O)NCCO` [ANANDAMIDE]: the Ki – broadly, a measure of affinity in units of concentration, obtained from inhibition or displacement – is over 1000 nM.
